Values of other authors as cited in patent publication US7658916B2, “Methods of enhancing lysosomal storage disease therapy by modulation of cell surface receptor density” (Genzyme Corporation, priority 2002, dated 2010).

System: asialoglycoprotein receptors (ASGPR)
Conditions: cited from earlier work

interleukin-2: cytokine that can down-regulate asialoglycoprotein receptors
inhibition of binding and uptake of asialoglycoproteins (after 3-6 hour treatment): 50%
inhibition of binding and uptake of asialoglycoproteins (after 24 hour treatment): ~100%

Where two headings read alike, the source gives them in different places.
